Experimental data from US9242993B2, “Morpholino substituted bicyclic pyrimidine urea or carbamate derivatives as mTOR inhibitors” (CELLZOME LIMITED, priority 2011, dated 2016).

Amino acid sequences for entries named in this document (tags omitted). A change or cut given only in a name is not applied to a line headed by its entry.
UniProt P42336, whole entry: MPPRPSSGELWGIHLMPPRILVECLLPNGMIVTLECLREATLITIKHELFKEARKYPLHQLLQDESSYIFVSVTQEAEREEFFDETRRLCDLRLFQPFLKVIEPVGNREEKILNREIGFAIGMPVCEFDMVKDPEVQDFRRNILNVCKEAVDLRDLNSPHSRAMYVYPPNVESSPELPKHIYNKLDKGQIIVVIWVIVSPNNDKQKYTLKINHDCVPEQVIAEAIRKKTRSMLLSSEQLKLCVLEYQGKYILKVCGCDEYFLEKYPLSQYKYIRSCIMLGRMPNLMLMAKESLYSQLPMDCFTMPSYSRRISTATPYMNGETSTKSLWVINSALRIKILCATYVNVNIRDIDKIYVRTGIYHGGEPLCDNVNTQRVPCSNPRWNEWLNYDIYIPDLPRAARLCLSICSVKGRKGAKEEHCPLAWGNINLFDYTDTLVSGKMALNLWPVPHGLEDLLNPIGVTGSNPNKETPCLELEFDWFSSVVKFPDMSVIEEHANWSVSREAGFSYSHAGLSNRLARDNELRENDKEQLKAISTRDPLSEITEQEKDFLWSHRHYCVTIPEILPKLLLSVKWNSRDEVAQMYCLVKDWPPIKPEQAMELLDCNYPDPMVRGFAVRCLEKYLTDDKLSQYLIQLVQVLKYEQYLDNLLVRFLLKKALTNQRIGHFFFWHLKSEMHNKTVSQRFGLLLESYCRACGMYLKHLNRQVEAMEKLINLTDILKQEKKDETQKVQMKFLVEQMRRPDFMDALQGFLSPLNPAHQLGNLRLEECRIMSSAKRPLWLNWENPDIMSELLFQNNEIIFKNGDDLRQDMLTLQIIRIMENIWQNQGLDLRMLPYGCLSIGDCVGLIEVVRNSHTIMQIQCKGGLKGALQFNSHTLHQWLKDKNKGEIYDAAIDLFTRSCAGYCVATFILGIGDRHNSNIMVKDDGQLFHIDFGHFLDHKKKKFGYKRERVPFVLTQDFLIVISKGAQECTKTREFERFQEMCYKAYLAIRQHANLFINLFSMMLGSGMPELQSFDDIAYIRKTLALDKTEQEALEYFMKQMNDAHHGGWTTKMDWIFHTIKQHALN
UniProt P42338: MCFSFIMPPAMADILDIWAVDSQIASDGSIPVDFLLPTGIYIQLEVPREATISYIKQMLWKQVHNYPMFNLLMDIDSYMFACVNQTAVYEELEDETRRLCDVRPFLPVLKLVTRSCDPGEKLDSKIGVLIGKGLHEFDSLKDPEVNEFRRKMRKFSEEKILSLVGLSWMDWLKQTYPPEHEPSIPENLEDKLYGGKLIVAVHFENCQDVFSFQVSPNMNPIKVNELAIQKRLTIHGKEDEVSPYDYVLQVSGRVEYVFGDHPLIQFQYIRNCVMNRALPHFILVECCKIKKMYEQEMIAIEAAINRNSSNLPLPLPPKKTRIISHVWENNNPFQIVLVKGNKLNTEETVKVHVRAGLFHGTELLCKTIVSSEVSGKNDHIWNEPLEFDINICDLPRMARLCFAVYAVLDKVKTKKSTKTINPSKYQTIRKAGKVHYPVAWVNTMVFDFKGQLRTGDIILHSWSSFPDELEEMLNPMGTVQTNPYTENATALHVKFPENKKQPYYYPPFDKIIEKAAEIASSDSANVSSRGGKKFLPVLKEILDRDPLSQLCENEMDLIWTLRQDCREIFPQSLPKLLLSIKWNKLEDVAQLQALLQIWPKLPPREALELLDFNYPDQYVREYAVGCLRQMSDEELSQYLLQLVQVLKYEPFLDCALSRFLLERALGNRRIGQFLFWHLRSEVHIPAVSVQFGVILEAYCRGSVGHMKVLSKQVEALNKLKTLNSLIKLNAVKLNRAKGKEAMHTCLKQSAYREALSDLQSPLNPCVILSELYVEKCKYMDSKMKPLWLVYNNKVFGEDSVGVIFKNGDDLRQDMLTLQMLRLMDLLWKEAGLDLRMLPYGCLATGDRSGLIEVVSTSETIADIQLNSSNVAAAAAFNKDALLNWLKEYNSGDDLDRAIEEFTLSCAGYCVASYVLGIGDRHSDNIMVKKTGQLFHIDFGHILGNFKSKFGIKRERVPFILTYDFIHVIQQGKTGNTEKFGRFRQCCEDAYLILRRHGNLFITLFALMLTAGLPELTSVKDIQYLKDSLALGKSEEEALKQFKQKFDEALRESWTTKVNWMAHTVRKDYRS
UniProt P48736: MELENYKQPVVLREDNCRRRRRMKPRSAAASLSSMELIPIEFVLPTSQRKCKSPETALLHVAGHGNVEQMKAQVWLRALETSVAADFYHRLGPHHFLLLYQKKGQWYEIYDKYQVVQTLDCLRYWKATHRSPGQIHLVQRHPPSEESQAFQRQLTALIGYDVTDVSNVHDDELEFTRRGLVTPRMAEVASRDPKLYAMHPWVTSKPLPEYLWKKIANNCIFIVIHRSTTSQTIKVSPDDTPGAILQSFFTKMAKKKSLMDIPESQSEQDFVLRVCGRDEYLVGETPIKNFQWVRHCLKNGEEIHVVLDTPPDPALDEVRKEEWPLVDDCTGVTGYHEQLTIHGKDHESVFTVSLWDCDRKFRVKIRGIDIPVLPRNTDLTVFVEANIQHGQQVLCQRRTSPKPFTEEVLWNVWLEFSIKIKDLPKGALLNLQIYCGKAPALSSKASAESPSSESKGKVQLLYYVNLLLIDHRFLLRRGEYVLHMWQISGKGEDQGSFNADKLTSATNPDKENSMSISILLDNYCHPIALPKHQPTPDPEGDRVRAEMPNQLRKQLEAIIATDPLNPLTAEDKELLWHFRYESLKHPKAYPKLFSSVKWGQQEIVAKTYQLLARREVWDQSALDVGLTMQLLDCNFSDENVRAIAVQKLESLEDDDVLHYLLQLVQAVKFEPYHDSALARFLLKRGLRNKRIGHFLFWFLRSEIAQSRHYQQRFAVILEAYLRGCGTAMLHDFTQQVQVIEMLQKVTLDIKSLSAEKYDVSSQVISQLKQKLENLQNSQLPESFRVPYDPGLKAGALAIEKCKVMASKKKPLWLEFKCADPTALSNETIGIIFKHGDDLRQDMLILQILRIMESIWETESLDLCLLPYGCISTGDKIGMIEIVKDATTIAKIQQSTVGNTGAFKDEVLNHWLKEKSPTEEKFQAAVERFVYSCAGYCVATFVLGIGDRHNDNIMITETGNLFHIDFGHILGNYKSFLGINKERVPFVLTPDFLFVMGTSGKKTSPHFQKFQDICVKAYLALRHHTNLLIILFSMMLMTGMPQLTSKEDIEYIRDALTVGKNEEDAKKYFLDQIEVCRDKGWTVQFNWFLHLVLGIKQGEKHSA
UniProt O00329: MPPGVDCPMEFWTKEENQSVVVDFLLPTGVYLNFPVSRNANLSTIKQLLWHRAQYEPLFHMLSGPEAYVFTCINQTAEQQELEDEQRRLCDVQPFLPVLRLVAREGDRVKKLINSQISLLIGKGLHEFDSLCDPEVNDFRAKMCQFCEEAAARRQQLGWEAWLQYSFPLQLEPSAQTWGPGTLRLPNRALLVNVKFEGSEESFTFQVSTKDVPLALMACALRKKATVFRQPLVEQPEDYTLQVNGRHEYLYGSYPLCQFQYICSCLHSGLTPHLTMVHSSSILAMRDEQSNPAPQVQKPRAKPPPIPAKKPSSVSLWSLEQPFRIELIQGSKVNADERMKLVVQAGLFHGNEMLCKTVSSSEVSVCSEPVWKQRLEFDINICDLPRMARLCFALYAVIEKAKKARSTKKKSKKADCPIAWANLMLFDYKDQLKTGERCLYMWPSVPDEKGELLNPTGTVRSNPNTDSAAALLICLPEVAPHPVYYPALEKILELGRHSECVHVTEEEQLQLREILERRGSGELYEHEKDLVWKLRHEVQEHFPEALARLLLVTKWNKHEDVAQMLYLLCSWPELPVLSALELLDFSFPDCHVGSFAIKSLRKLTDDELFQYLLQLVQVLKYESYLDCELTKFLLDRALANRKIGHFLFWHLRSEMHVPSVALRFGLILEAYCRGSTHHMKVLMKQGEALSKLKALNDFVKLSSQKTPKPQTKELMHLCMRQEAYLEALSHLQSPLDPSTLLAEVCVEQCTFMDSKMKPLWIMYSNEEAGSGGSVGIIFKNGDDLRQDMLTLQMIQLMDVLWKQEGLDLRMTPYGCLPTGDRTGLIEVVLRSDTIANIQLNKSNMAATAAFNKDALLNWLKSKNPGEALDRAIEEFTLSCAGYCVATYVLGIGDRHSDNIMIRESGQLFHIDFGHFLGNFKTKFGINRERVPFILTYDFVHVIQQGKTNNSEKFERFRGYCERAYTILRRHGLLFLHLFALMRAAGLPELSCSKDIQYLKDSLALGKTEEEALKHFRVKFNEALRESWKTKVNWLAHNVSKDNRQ

Tests used:
Assay type in all cases: binding
[1] = molecular target: PI3K alpha (PI3Ka) (Homo sapiens, UniProt P42336); assay: kinobeads assay, PI3K alpha; conditions: Jurkat cell lysate, read-out: PI3Ka inhibition value (IC50), activity level
[2] = molecular target: PI3K beta (PI3 Kb) (Homo sapiens, UniProt P42338); assay: kinobeads assay, PI3K beta; conditions: Jurkat cell lysate, read-out: PI3Kb inhibition value (IC50), activity level
[3] = molecular target: PI3K gamma (PI3 Kg) (Homo sapiens, UniProt P48736); assay: kinobeads assay, PI3K gamma; conditions: Jurkat cell lysate, read-out: PI3Kg inhibition value (IC50), activity level
[4] = molecular target: PI3K delta (PI3 Kd) (Homo sapiens, UniProt O00329); assay: kinobeads assay, PI3K delta; conditions: Jurkat cell lysate, read-out: PI3Kd inhibition value (IC50), activity level

Compound	IC50 [1]	IC50 [2]	IC50 [3]	IC50 [4]
O=C(Nc1ccc(-c2nc3c(c(N4C5CCC4COC5)n2)CS(=O)(=O)C3)cc1)NC1CC1 [Example 26, 1-(4-(4-(3-oxa-8-azabicyclo[3.2.1]octan-8-yl)-6,6-dioxido-5,7-dihydrothieno[3,4-d]pyrimidin-2-yl)phenyl)-3-cyclopropylurea]	> 10 µM			
CNC(=O)Nc1ccc(-c2nc(N3CCOC[C@@H]3C)c3c(n2)C(C)(C)S(=O)(=O)C3C)c(F)c1 (stereo partly drawn) [Example 78, 1-(3-fluoro-4-(5,7,7-trimethyl-4-((S)-3-methylmorpholino)-6,6-dioxido-5,7-dihydrothieno[3,4-d]pyrimidin-2-yl)phenyl)-3-methylurea]	> 10 µM	> 10 µM	> 10 µM	
CCC1COCCN1c1nc(-c2ccc(NC(=O)NC3CC3)cc2)nc2c1CS(=O)(=O)C2 (centres unmarked) [Example 27, 1-cyclopropyl-3-(4-(4-(3-ethylmorpholino)-6,6-dioxido-5,7-dihydrothieno[3,4-d]pyrimidin-2-yl)phenyl)urea]	> 10 µM			
O=C(NCCCF)Nc1ccc(-c2nc3c(c(N4CC5CCC(C4)O5)n2)CS(=O)(=O)C3)cc1 [Example 29, 1-(4-(4-(8-oxa-3-azabicyclo[3.2.1]octan-3-yl)-6,6-dioxido-5,7-dihydrothieno[3,4-d]pyrimidin-2-yl)phenyl)-3-(3-fluoropropyl)urea]	> 10 µM			
C[C@H]1COCCN1c1nc(-c2ccc(NC(=O)NCCCF)cc2)nc2c1CS(=O)(=O)C2 [Example 28, (S)-1-(3-fluoropropyl)-3-(4-(4-(3-methylmorpholino)-6,6-dioxido-5,7-dihydrothieno[3,4-d]pyrimidin-2-yl)phenyl)urea]	> 10 µM			
CNC(=O)Nc1ccc(-c2nc(N3CCOC[C@@H]3C)c3c(n2)C(C)(C)S(=O)(=O)C3C)cc1 (stereo partly drawn) [Example 77, 1-methyl-3-(4-(5,7,7-trimethyl-4-((S)-3-methylmorpholino)-6,6-dioxido-5,7-dihydrothieno[3,4-d]pyrimidin-2-yl)phenyl)urea]	> 10 µM	> 10 µM	> 10 µM	
CC1c2nc(-c3ccc(NC(=O)NC4CC4)cc3)nc(N3CCOC[C@@H]3C)c2CS1(=O)=O (stereo partly drawn) [Example 7, 1-cyclopropyl-3-(4-(7-methyl-4-((S)-3-methylmorpholino)-6,6-dioxido-5,7-dihydrothieno[3,4-d]pyrimidin-2-yl)phenyl)urea]	> 10 µM			
CCNC(=O)Nc1ccc(-c2nc(N3CCOCC3)c3c(n2)C(C)(C)S(=O)(=O)C3)cc1 [Example 76, 1-(4-(7,7-dimethyl-4-morpholino-6,6-dioxido-5,7-dihydrothieno[3,4-d]pyrimidin-2-yl)phenyl)-3-ethylurea]	> 10 µM	> 10 µM	> 10 µM	
C[C@H]1COCCN1c1nc(-c2ccc(NC(=O)NC3CC3)cc2)nc2c1CS(=O)(=O)CC2 [Example 4, (S)-1-cyclopropyl-3-(4-(4-(3-methylmorpholino)-6,6-dioxido-7,8-dihydro-5H-thiopyrano[4,3-d]pyrimidin-2-yl)phenyl)urea]	> 10 µM			
C[C@H]1COCCN1c1nc(-c2ccc(NC(=O)NC3CC3)cc2)nc2c1CSCC2 [Example 3, (S)-1-cyclopropyl-3-(4-(4-(3-methylmorpholino)-7,8-dihydro-5H-thiopyrano[4,3-d]pyrimidin-2-yl)phenyl)urea]	> 10 µM			
CNC(=O)Nc1ccc(-c2nc3c(c(N4CC5CCC(C4)O5)n2)CS(=O)(=O)C3)cc1 [Example 21, 1-(4-(4-(8-oxa-3-azabicyclo[3.2.1]octan-3-yl)-6,6-dioxido-5,7-dihydrothieno[3,4-d]pyrimidin-2-yl)phenyl)-3-methylurea]	> 10 µM			
CC[C@H]1COCCN1c1nc(-c2ccc(NC(=O)NC)cc2)nc2c1C(C)S(=O)(=O)C2(C)C (stereo partly drawn) [Example 80, 1-(4-(4-((S)-3-ethylmorpholino)-5,7,7-trimethyl-6,6-dioxido-5,7-dihydrothieno[3,4-d]pyrimidin-2-yl)phenyl)-3-methylurea]	> 10 µM	> 10 µM	> 10 µM	

Next, values leading:

IC50 [1]	IC50 [2]	IC50 [3]	IC50 [4]	Compound
> 10 µM	> 10 µM	> 10 µM		CC1c2c(N3CCOCC3)nc(-c3ccc(NC(=O)NCCF)cc3)nc2C(C)(C)S1(=O)=O (centres unmarked) [Example 81, 1-(2-fluoroethyl)-3-(4-(5,7,7-trimethyl-4-morpholino-6,6-dioxido-5,7-dihydrothieno[3,4-d]pyrimidin-2-yl)phenyl)urea]
> 10 µM				C[C@H]1COCCN1c1nc(-c2ccc(NC(=O)Nc3ccncc3)cc2)nc2c1CS(=O)(=O)C2 [Example 35, (S)-1-(4-(4-(3-methylmorpholino)-6,6-dioxido-5,7-dihydrothieno[3,4-d]pyrimidin-2-yl)phenyl)-3-(pyridin-4-yl)urea]
> 10 µM				C[C@H]1COCCN1c1nc(-c2ccc(NC(=O)NC3CC3)cc2)nc2c1SCCC2 [Example 8, (S)-1-cyclopropyl-3-(4-(4-(3-methylmorpholino)-7,8-dihydro-6H-thiopyrano[3,2-d]pyrimidin-2-yl)phenyl)urea]
> 10 µM				O=C(NCCF)Nc1ccc(-c2nc3c(c(N4CC5CCC(C4)O5)n2)CS(=O)(=O)C3)cc1 [Example 22, 1-(4-(4-(8-oxa-3-azabicyclo[3.2.1]octan-3-yl)-6,6-dioxido-5,7-dihydrothieno[3,4-d]pyrimidin-2-yl)phenyl)-3-(2-fluoroethyl)urea]
> 10 µM	> 10 µM		> 10 µM	CC1c2c(nc(-c3ccc(NC(=O)NC4CC4)cc3)nc2N2CC3CCC(C2)O3)CS1(=O)=O (centres unmarked) [Example 34, 1-(4-(4-(8-oxa-3-azabicyclo[3.2.1]octan-3-yl)-5-methyl-6,6-dioxido-5,7-dihydrothieno[3,4-d]pyrimidin-2-yl)phenyl)-3-cyclopropylurea]
> 10 µM				C[C@H]1COCCN1c1nc(-c2ccc(NC(=O)NC3CC3)cc2)nc2c1S(=O)(=O)CC2 [Example 5, (S)-1-cyclopropyl-3-(4-(4-(3-methylmorpholino)-5,5-dioxido-6,7-dihydrothieno[3,2-d]pyrimidin-2-yl)phenyl)urea]
> 10 µM				CC1c2c(nc(-c3ccc(NC(=O)NC4CC4)cc3)nc2N2CCOCC2)CS1(=O)=O (centres unmarked) [Example 31, 1-cyclopropyl-3-(4-(5-methyl-4-morpholino-6,6-dioxido-5,7-dihydrothieno[3,4-d]pyrimidin-2-yl)phenyl)urea]
> 10 µM				C[C@H]1COCCN1c1nc(-c2ccc(NC(=O)NCC(F)F)cc2)nc2c1CS(=O)(=O)C2 [Example 23, (S)-1-(2,2-difluoroethyl)-3-(4-(4-(3-methylmorpholino)-6,6-dioxido-5,7-dihydrothieno[3,4-d]pyrimidin-2-yl)phenyl)urea]
> 10 µM	> 10 µM	> 10 µM		C[C@@H]1c2c(N3CCOC[C@@H]3C)nc(-c3ccc(NC(=O)NC4CC4)cc3)nc2C(C)(C)S1(=O)=O [Example 82, 1-cyclopropyl-3-(4-((R)-5,7,7-trimethyl-4-((S)-3-methylmorpholino)-6,6-dioxido-5,7-dihydrothieno[3,4-d]pyrimidin-2-yl)phenyl)urea]
> 10 µM	> 10 µM	> 10 µM		CC[C@H]1COCCN1c1nc(-c2ccc(NC(=O)NC)cc2F)nc2c1C(C)S(=O)(=O)C2(C)C (stereo partly drawn) [Example 79, 1-(4-(4-((S)-3-ethylmorpholino)-5,7,7-trimethyl-6,6-dioxido-5,7-dihydrothieno[3,4-d]pyrimidin-2-yl)-3-fluorophenyl)-3-methylurea]
> 10 µM				C[C@H]1COCCN1c1nc(-c2ccc(NC(=O)Nc3cccnc3)cc2)nc2c1CS(=O)(=O)C2 [Example 36, (S)-1-(4-(4-(3-methylmorpholino)-6,6-dioxido-5,7-dihydrothieno[3,4-d]pyrimidin-2-yl)phenyl)-3-(pyridin-3-yl)urea]
> 10 µM	> 10 µM	> 10 µM		CC1c2c(N3CCOC[C@@H]3C)nc(-c3ccc(NC(=O)NCCF)cc3)nc2C(C)(C)S1(=O)=O (stereo partly drawn) [Example 75, 1-(2-fluoroethyl)-3-(4-(5,7,7-trimethyl-4-((S)-3-methylmorpholino)-6,6-dioxido-5,7-dihydrothieno[3,4-d]pyrimidin-2-yl)phenyl)urea]
> 10 µM				O=C(Nc1ccc(-c2nc3c(c(N4CC5CCC(C4)O5)n2)CS(=O)(=O)C3)cc1)NC1CC1 [Example 20, 1-(4-(4-(8-oxa-3-azabicyclo[3.2.1]octan-3-yl)-6,6-dioxido-5,7-dihydrothieno[3,4-d]pyrimidin-2-yl)phenyl)-3-cyclopropylurea]
> 10 µM				O=C(NCC(F)F)Nc1ccc(-c2nc3c(c(N4CC5CCC(C4)O5)n2)CS(=O)(=O)C3)cc1 [Example 24, 1-(4-(4-(8-oxa-3-azabicyclo[3.2.1]octan-3-yl)-6,6-dioxido-5,7-dihydrothieno[3,4-d]pyrimidin-2-yl)phenyl)-3-(2,2-difluoroethyl)urea]
> 10 µM				CC(C)NC(=O)Nc1ccc(-c2nc3c(c(N4CCOC[C@@H]4C)n2)CS(=O)(=O)C3)cc1 [Example 25, (S)-1-isopropyl-3-(4-(4-(3-methylmorpholino)-6,6-dioxido-5,7-dihydrothieno[3,4-d]pyrimidin-2-yl)phenyl)urea]
> 10 µM				C[C@@H]1CN(c2nc(-c3ccc(NC(=O)NC4CC4)cc3)nc3c2CS(=O)(=O)C3)C[C@H](C)O1 [Example 19, 1-cyclopropyl-3-(4-(4-((2S,6R)-2,6-dimethylmorpholino)-6,6-dioxido-5,7-dihydrothieno[3,4-d]pyrimidin-2-yl)phenyl)urea]
1 to 10 µM				CC1c2c(nc(-c3ccc(NC(=O)NC4CC4)cc3)nc2N2CCOC[C@@H]2C)CS1(=O)=O (mixture of isomers) [Example 6, 1-cyclopropyl-3-(4-(5-methyl-4-((S)-3-methylmorpholino)-6,6-dioxido-5,7-dihydrothieno[3,4-d]pyrimidin-2-yl)phenyl)urea]
